Patent EP1142587A1 (priority 1998, dated 2000)
Some compounds may have been tested in ways that are not shown here.

The chains behind the UniProt entries cited, without tags or fusion partners.
UniProt P61169, whole entry: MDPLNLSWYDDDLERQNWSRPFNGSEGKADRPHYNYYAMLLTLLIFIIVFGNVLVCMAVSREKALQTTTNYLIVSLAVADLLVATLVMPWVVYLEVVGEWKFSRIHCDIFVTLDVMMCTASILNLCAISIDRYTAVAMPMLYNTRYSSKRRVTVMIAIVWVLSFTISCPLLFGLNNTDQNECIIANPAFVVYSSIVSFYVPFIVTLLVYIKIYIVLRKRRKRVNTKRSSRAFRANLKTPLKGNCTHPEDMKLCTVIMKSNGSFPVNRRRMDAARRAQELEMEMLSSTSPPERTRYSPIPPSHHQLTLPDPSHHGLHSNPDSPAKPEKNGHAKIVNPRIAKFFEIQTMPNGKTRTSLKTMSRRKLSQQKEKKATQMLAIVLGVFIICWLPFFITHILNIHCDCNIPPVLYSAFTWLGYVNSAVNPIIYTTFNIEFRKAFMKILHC

Molecular target: dopamine D2 receptor (Rattus norvegicus, UniProt P61169)
Assay: Binding affinity with a dopamine D2 receptor ([3H]-spiperone membrane binding)
Details: read-out: D2Ki value; rat corpus striatum membrane fraction, 0.1nM [3H]-spiperone, 37°C 30 minutes

Molecule O=c1[nH]c2ccccc2n1C1CCN(Cc2ccc(Cl)nc2)CC1 has a Ki of 0.076 µM.
